# Source: patent US12558356B2, “Immunophilin binding agents and uses thereof” (The Regents of the University of California, priority 2019, dated 2026)
# The chains behind the UniProt entries cited, without tags or fusion partners.
# UniProt P62942, whole entry, looked up: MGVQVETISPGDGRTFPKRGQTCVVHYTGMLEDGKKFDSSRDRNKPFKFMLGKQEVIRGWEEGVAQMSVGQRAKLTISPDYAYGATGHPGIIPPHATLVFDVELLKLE
# Biological target: Src / HA-FKBP12 (Homo sapiens (Human), UniProt P12931+P62942)
# Conditions: Jurkat cell lysates
substance,measurement,value
"tacrolimus [FK506, reference compound]",Co-immunoprecipitation of Src with HA-FKBP12,not
